The results in this text go back to ChEMBL document CHEMBL1156989, “Discovery of novel small molecule orally bioavailable C-X-C chemokine receptor 4 antagonists that are potent inhibitors of T-tropic (X4) HIV-1 replication” (J Med Chem, 2010).

Sequences of proteins named here, by UniProt entry; tags and fusion partners are left off.
UniProt P61073, whole entry: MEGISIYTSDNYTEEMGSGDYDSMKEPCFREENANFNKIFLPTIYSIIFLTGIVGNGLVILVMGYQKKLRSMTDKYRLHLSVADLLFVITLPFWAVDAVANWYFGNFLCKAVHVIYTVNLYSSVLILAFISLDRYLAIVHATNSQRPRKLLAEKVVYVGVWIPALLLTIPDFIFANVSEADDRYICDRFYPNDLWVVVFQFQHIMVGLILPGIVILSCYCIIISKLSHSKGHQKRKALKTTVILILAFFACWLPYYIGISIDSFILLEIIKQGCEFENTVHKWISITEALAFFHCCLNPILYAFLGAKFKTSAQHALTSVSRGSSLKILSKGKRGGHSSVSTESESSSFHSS

Molecules are shown by their SMILES.

In the test the target is C-X-C chemokine receptor type 4 (Homo sapiens, UniProt P61073). In words: Antagonist activity at CXCR4 in human CEM-CCRF cells assessed as inhibition of SDF-1-induced calcium flux. It counts as functional, cell-based. For orientation: A change in cytosolic calcium serves as a functional read-out for many receptors and channels.

Broadly, the IC50 is the concentration needed to halve the response being measured.

`NCCCCN(Cc1nc2ccccc2[nH]1)C1CCCc2cccnc21` (stereo unspecified): the IC50 came to 11 nM.
